ChEMBL document CHEMBL6182912, “Development of Novel Phthalazinone-Triazole Hybrids as Potential Antidiabetic Agents Targeting GLUT4 Translocation in Skeletal Muscle” (J Med Chem, 2025)

Molecular target: Aldo-keto reductase family 1 member B1 (Homo sapiens, UniProt P15121)
Assay: biochemical

O=C(O)Cc1nn(Cc2nc3cc(C(F)(F)F)ccc3s2)c(=O)c2ccccc12 [ZOPOLRESTAT]
IC50: 1 nM
